The values that follow are results of earlier work, collected in PMC6805442, “Discovery of low-molecular weight anti-PD-L1 peptides for cancer immunotherapy” (Journal for Immunotherapy of Cancer, 2019).

For this series, the target named is PD-L1. The note with it: read-out: KD of the PD-1/PD-L1 interaction; ref [23]; cited from earlier work. How it is done: Binding affinities of the discovered peptides against the recombinant human PD-L1 ECD protein were evaluated using SPR. The PD-L1 protein was immobilized on a CM5 golden chip by the direct amine coupling method. […] Even though the binding affinity of peptides are generally lower than that of antibodies, the very high affinity of antibodies may result in on-targe ...

Regarding “PD-1: programmed death-1, natural binding partner of PD-L1”, the Kd is roughly 4 µM.
